From patent publication US12576087B2, “Aryloxypiperidine pyrazole compounds as indoleamine 2,3-dioxygenase inhibitors” (Merck Sharp & Dohme LLC, priority 2018, dated 2026)

By UniProt entry, the sequences of proteins in these tests, tags left out.
UniProt P14902, whole entry: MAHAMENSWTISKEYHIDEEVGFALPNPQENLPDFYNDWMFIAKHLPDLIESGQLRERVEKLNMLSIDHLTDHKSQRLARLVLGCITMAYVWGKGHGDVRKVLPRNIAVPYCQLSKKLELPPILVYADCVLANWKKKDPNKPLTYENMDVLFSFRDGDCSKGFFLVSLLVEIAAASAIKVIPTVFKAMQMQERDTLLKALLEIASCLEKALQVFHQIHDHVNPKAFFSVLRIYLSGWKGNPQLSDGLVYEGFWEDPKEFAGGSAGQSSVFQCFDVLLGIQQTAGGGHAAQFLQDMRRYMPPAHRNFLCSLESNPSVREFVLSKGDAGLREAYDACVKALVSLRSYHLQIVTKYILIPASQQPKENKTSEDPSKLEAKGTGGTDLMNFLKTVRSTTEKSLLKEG

Target: IDO1 (Homo sapiens, UniProt P14902)
Assay: IDO1 Cellular Assay in HeLa Cells Stimulated with IFNγ
Format: cell-based
Conditions: HeLa cells stimulated with IFNγ 100 ng/mL, about 48 hours

EC50 [nM] | Structure (SMILES)
8.26 | Cc1cc(F)ccc1OC1CCN(C(=O)Cn2nc(C(=O)N3CCO[C@H](CO)C3)c3c2CCCC3)CC1 [Example 81, 1-[4-(4-fluoro-2-methyl-phenoxy)-1-piperidyl]-2-[3-[(2S)-2-(hydroxymethyl)morpholine-4-carbonyl]-4,5,6,7-tetrahydroindazol-1-yl]ethanone]
11 | Cc1cc(F)ccc1OC1CCN(C(=O)Cn2nc(C(=O)N3CCO[C@@H](CO)C3)c3c2CCCC3)CC1 [Example 82, 1-[4-(4-fluoro-2-methyl-phenoxy)-1-piperidyl]-2-[3-[(2R)-2-(hydroxymethyl)morpholine-4-carbonyl]-4,5,6,7-tetrahydroindazol-1-yl]ethanone]
11.9 | Cc1cc(F)ccc1OC1CCN(C(=O)Cn2nc(C(=O)N3CCC(F)(CO)CC3)c3c2CCCCC3)CC1 [Example 83, 2-[3-[4-fluoro-4-(hydroxymethyl)piperidine-1-carbonyl]-5,6,7,8-tetrahydro-4H-cyclohepta[c]pyrazol-1-yl]-1-[4-(4-fluoro-2-methyl-phenoxy)-1-piperidyl]ethanone]
30.4 | Cc1cc(F)ccc1OC1CCN(C(=O)Cn2nc(C(=O)N3CCN(C(=O)CO)CC3)c3c2CCCCC3)CC1 [Example 84, 1-[4-(4-fluoro-2-methyl-phenoxy)-1-piperidyl]-2-[3-[4-(2-hydroxyacetyl)piperazine-1-carbonyl]-5,6,7,8-tetrahydro-4H-cyclohepta[c]pyrazol-1-yl]ethanone]
35.7 | Cc1cc(F)ccc1OC1CCN(C(=O)Cn2nc(C(=O)N3CCO[C@H](CO)C3)c3c2CCCCC3)CC1 [Example 85, 1-[4-(4-fluoro-2-methyl-phenoxy)-1-piperidyl]-2-[3-[(2S)-2-(hydroxymethyl)morpholine-4-carbonyl]-5,6,7,8-tetrahydro-4H-cyclohepta[c]pyrazol-1-yl]ethanone]
43.2 | Cc1cc(F)ccc1OC1CCN(C(=O)Cn2nc(C(=O)N3CCO[C@@H](CO)C3)c3c2CCCCC3)CC1 [Example 86, 1-[4-(4-fluoro-2-methyl-phenoxy)-1-piperidyl]-2-[3-[(2R)-2-(hydroxymethyl)morpholine-4-carbonyl]-5,6,7,8-tetrahydro-4H-cyclohepta[c]pyrazol-1-yl]ethanone]
52.9 | Cc1cc(F)ccc1OC1CCN(C(=O)Cn2nc(C(=O)N3CCO[C@H](CO)C3)c3c2CCC3)CC1 [Example 87, 1-[4-(4-fluoro-2-methyl-phenoxy)-1-piperidyl]-2-[3-[(2S)-2-(hydroxymethyl)morpholine-4-carbonyl]-5,6-dihydro-4H-cyclopenta[c]pyrazol-1-yl]ethanone]
55.2 | Cc1cc(F)ccc1OC1CCN(C(=O)Cn2nc(C(=O)N3CCN(C(=O)CO)CC3)c3c2CCC3)CC1 [Example 88, 1-[4-(4-fluoro-2-methyl-phenoxy)-1-piperidyl]-2-[3-[4-(2-hydroxyacetyl)piperazine-1-carbonyl]-5,6-dihydro-4H-cyclopenta[c]pyrazol-1-yl]ethanone]
64.6 | Cc1cc(F)ccc1OC1CCN(C(=O)Cn2nc(C(=O)N3CCO[C@@H](CO)C3)c3c2CCC3)CC1 [Example 89, 1-[4-(4-fluoro-2-methyl-phenoxy)-1-piperidyl]-2-[3-[(2R)-2-(hydroxymethyl)morpholine-4-carbonyl]-5,6-dihydro-4H-cyclopenta[c]pyrazol-1-yl]ethanone]
1.09 | C[C@@H]1CN(C(=O)c2nn(CC(=O)N3CCC(Oc4cc(F)ccc4Br)CC3)c3c2CCC3)C[C@H](C)O1 [Example 91, 1-[4-(2-bromo-5-fluorophenoxy)piperidin-1-yl]-2-{3-[(2R,6S)-2,6-dimethylmorpholine-4-carbonyl]-5,6-dihydrocyclopenta[c]pyrazol-1(4H)-yl}ethan-1-one]
1.52 | C[C@@H]1CN(C(=O)c2nn(CC(=O)N3CCC(Oc4ccccc4Cl)CC3)c3c2CCC3)C[C@H](C)O1 [Example 92, 1-[4-(2-chlorophenoxy)piperidin-1-yl]-2-{3-[(2R,6S)-2,6-dimethylmorpholine-4-carbonyl]-5,6-dihydrocyclopenta[c]pyrazol-1(4H)-yl}ethan-1-one]
1.53 | Cc1ccc(Cl)c(OC2CCN(C(=O)Cn3nc(C(=O)N4C[C@@H](C)O[C@@H](C)C4)c4c3CCC4)CC2)c1 [Example 93, 1-[4-(2-chloro-5-methylphenoxy)piperidin-1-yl]-2-{3-[(2R,6S)-2,6-dimethylmorpholine-4-carbonyl]-5,6-dihydrocyclopenta[c]pyrazol-1(4H)-yl}ethan-1-one]
4.36 | C[C@@H]1CN(C(=O)c2nn(CC(=O)N3CCC(Oc4ccc5c(c4)CCC5)CC3)c3c2CCC3)C[C@H](C)O1 [Example 94, 1-{4-[(2,3-dihydro-1H-inden-5-yl)oxy]piperidin-1-yl}-2-{3-[(2R,6S)-2,6-dimethylmorpholine-4-carbonyl]-5,6-dihydrocyclopenta[c]pyrazol-1(4H)-yl}ethan-1-one]
4.48 | Cc1ccc(OC2CCN(C(=O)Cn3nc(C(=O)N4C[C@@H](C)O[C@@H](C)C4)c4c3CCC4)CC2)cc1 [Example 95, 2-{3-[(2R,6S)-2,6-dimethylmorpholine-4-carbonyl]-5,6-dihydrocyclopenta[c]pyrazol-1(4H)-yl}-1-[4-(4-methylphenoxy)piperidin-1-yl]ethan-1-one]
4.54 | C[C@@H]1CN(C(=O)c2nn(CC(=O)N3CCC(Oc4ccccc4C(F)(F)F)CC3)c3c2CCC3)C[C@H](C)O1 [Example 96, 2-{3-[(2R,6S)-2,6-dimethylmorpholine-4-carbonyl]-5,6-dihydrocyclopenta[c]pyrazol-1(4H)-yl}-1-{4-[2-(trifluoromethyl)phenoxy]piperidin-1-yl}ethan-1-one]
9.47 | C[C@@H]1CN(C(=O)c2nn(CC(=O)N3CCC(Oc4ccc(Br)cc4)CC3)c3c2CCC3)C[C@H](C)O1 [Example 97, 1-[4-(4-bromophenoxy)piperidin-1-yl]-2-{3-[(2R,6S)-2,6-dimethylmorpholine-4-carbonyl]-5,6-dihydrocyclopenta[c]pyrazol-1(4H)-yl}ethan-1-one]
11.3 | Cc1cccc(OC2CCN(C(=O)Cn3nc(C(=O)N4C[C@@H](C)O[C@@H](C)C4)c4c3CCC4)CC2)c1 [Example 98, 2-{3-[(2R,6S)-2,6-dimethylmorpholine-4-carbonyl]-5,6-dihydrocyclopenta[c]pyrazol-1(4H)-yl}-1-[4-(3-methylphenoxy)piperidin-1-yl]ethan-1-one]
11.8 | C[C@@H]1CN(C(=O)c2nn(CC(=O)N3CCC(Oc4cccc(F)c4)CC3)c3c2CCC3)C[C@H](C)O1 [Example 99, 2-{3-[(2R,6S)-2,6-dimethylmorpholine-4-carbonyl]-5,6-dihydrocyclopenta[c]pyrazol-1(4H)-yl}-1-[4-(3-fluorophenoxy)piperidin-1-yl]ethan-1-one]
18.4 | C[C@@H]1CN(C(=O)c2nn(CC(=O)N3CCC(Oc4ccccc4OC(F)(F)F)CC3)c3c2CCC3)C[C@H](C)O1 [Example 100, 2-{3-[(2R,6S)-2,6-dimethylmorpholine-4-carbonyl]-5,6-dihydrocyclopenta[c]pyrazol-1(4H)-yl}-1-{4-[2-(trifluoromethoxy)phenoxy]piperidin-1-yl}ethan-1-one]
21.9 | C[C@@H]1CN(C(=O)c2nn(CC(=O)N3CCC(Oc4ccccc4F)CC3)c3c2CCC3)C[C@H](C)O1 [Example 101, 2-{3-[(2R,6S)-2,6-dimethylmorpholine-4-carbonyl]-5,6-dihydrocyclopenta[c]pyrazol-1(4H)-yl}-1-[4-(2-fluorophenoxy)piperidin-1-yl]ethan-1-one]
24 | C[C@@H]1CN(C(=O)c2nn(CC(=O)N3CCC(Oc4ccc(C(F)(F)F)cc4)CC3)c3c2CCC3)C[C@H](C)O1 [Example 102, 2-{3-[(2R,6S)-2,6-dimethylmorpholine-4-carbonyl]-5,6-dihydrocyclopenta[c]pyrazol-1(4H)-yl}-1-{4-[4-(trifluoromethyl)phenoxy]piperidin-1-yl}ethan-1-one]
25.8 | C[C@@H]1CN(C(=O)c2nn(CC(=O)N3CCC(Oc4ccccc4)CC3)c3c2CCC3)C[C@H](C)O1 [Example 103, 2-{3-[(2R,6S)-2,6-dimethylmorpholine-4-carbonyl]-5,6-dihydrocyclopenta[c]pyrazol-1(4H)-yl}-1-(4-phenoxypiperidin-1-yl)ethan-1-one]
26 | C[C@@H]1CN(C(=O)c2nn(CC(=O)N3CCC(Oc4cccc(Cl)c4)CC3)c3c2CCC3)C[C@H](C)O1 [Example 104, 1-[4-(3-chlorophenoxy)piperidin-1-yl]-2-{3-[(2R,6S)-2,6-dimethylmorpholine-4-carbonyl]-5,6-dihydrocyclopenta[c]pyrazol-1(4H)-yl}ethan-1-one]
27.3 | C[C@@H]1CN(C(=O)c2nn(CC(=O)N3CCC(Oc4ccc(Cl)cc4)CC3)c3c2CCC3)C[C@H](C)O1 [Example 105, 1-[4-(4-chlorophenoxy)piperidin-1-yl]-2-{3-[(2R,6S)-2,6-dimethylmorpholine-4-carbonyl]-5,6-dihydrocyclopenta[c]pyrazol-1(4H)-yl}ethan-1-one]
44 | C[C@@H]1CN(C(=O)c2nn(CC(=O)N3CCC(Oc4ccccc4C#N)CC3)c3c2CCC3)C[C@H](C)O1 [Example 106, 2-{[1-({3-[(2R,6S)-2,6-dimethylmorpholine-4-carbonyl]-5,6-dihydrocyclopenta[c]pyrazol-1(4H)-yl}acetyl)piperidin-4-yl]oxy}benzonitrile]
47.7 | C[C@@H]1CN(C(=O)c2nn(CC(=O)N3CCC(Oc4ccc(F)c(F)c4)CC3)c3c2CCC3)C[C@H](C)O1 [Example 107, 1-[4-(3,4-difluorophenoxy)piperidin-1-yl]-2-{3-[(2R,6S)-2,6-dimethylmorpholine-4-carbonyl]-5,6-dihydrocyclopenta[c]pyrazol-1(4H)-yl}ethan-1-one]
125 | COc1ccccc1CC1CCN(C(=O)Cn2nc(C(=O)N3C[C@@H](C)O[C@@H](C)C3)c3c2CCC3)CC1 [Example 108, 2-{3-[(2R,6S)-2,6-dimethylmorpholine-4-carbonyl]-5,6-dihydrocyclopenta[c]pyrazol-1(4H)-yl}-1-{4-[(2-methoxyphenyl)methyl]piperidin-1-yl}ethan-1-one]
